From US20220177587A1, “METHODS AND USES OF VARIANT CD80 FUSION PROTEINS AND RELATED CONSTRUCTS” (Alpine Immune Sciences, Inc., priority 2018, published 2022) come the findings set out here.

The assay concerns the target T1, huCTLA4 (Homo sapiens, UniProt P16410).
T1 construct: huCTLA4 and huPD-L1, full-length mammalian surface expression constructs were generated; expressed in transfected cells; host or cells: CHO cells, lentiviral transduction, sorted to >98% purity
Put plainly: Flow binding to CHO cells stably expressing CTLA4. The settings on record: flow binding; read-out: CHO/CTLA4 EC50. As for the experimental part:
Binding of selected immunomodulatory fusion proteins to cognate binding partners was assessed. […] Cells were sorted in a Bio-Rad S3 Cell Sorter (Bio-Rad Corp., USA) to >98% purity. Jurkat/IL2 reporter cells, which endogenously express CD28, were used to detect binding to CD28.
For staining and analysis by flow cytometry, 100,000 cells of appropriate transfected cells were plated in 96-well round bottom plates. Cells were spun down and resuspended in staining buffer (phosphate buffered saline (PBS), 1% bovine serum albumin (BSA), and 0.1% sodium azide) for 20 minutes to block non-specific binding. […] Primary staining was performed on ice for 45 minutes, before washing cells in staining buffer twice. Phycoerythrin (PE)-conjugated anti-human Fc (Jackson ImmunoResearch, USA) was diluted 1:150, added to cells and incubated another 30 minutes on ice. Cells were then washed twice with 150 μL/well stain buffer, fixed in 2% formaldehyde/PBS, and analyzed on Intellicyt flow cytometer (Intellicyt Corp., USA). PE Mean Fluorescence Intensity (MFI) was calculated for each cell type with FlowJo Version 10 software (FlowJo LLC, USA).
Binding assays were carried out to assess the specificity and affinity of multivalent proteins to cell-expressed CTLA-4, CD28, and PD-L1 counter structures.
The EC50 for binding also was determined.

In the case of “CD80 (E88D/K89R/D90K/A91G/F92Y/K93R) ECD-Fc: variant full CD80 ECD fused to effector human IgG1 Fc (SEQ ID NO:1527)”, the EC50 is 3.6 nM.
